The hits were mostly taken out for another list; the other results follow. The source made the active and inactive calls. Calls come from the whole dose curve. Where only a bound is given, the exact number is not on record here.
Potency is the fitted concentration of half-maximal effect.

In this test the test system is Schistosoma mansoni peroxiredoxin 2 (Prx2). Briefly: Schistosoma Mansoni Peroxiredoxins (Prx2). To be noted: S. mansoni Prx2 activity coupled to TGR/GSH (TGR is thioredoxin glutathione reductase), NADPH fluorescence loss, qHTS. The text has this:
NIH Molecular Libraries Screening Centers Network [MLSCN]
NIH Chemical Genomics Center [NCGC]
David Williams [Illinois State University]
Schistosoma mansoni, a causative agent of schistosomiasis, resides in the bloodstream of their host up to 30 years without being eliminated by the host immune attack. One proposed survival mechanism is the production of an antioxidant "firewall" that neutralizes the oxidative assault of the host's immune attack. Schistosoma mansoni peroxiredoxins (Prx) are important parasite antioxidant proteins that play a crucial role in redox balance mechanisms. […] First, the proteins are essential for the parasite survival. […] Third, the protein(s) is amenable for study at the molecular level and can be produced in bacteria in large quantities, in soluble and active form. […] A decrease in the fluorescence intensity of NADPH was used to measure the enzyme activity. […]
Three uL of reagents were dispensed to 1536-well Greiner black plates. […] The plate was transferred to ViewLux (Perkin-Elmer) High-throughput CCD imager where kinetic measurements (every 30 sec, for a total of 8 min) of NADPH fluorescence were taken using 365 nm excitation/450 nm emission filter set. […]
Background: In qHTS, concentration-response curves come from the screen itself.
In the case of `CCOC(=O)N1CCC(=C2c3ccc(Cl)cc3CCc3cccnc32)CC1`, the Potency was inactive: > 57 µM.

As to `CCN(CC)CC(=O)Nc1c(C)cccc1C`, the Potency is inactive: > 57 µM.

Source of the values: PubChem BioAssay AID448 (National Center for Advancing Translational Sciences (NCATS), 2006).
